The structures appear in SMILES notation.

Sequences of proteins named here, by UniProt entry; tags and fusion partners are left off. A change or cut given only in a name is not applied to a line headed by its entry.
UniProt P01116: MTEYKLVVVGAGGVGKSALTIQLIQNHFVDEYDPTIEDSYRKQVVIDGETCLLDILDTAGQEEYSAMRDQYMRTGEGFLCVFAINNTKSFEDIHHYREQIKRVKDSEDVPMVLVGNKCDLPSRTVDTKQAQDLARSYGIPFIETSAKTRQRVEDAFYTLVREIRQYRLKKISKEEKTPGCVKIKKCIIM

The record followed here is patent US20250368649A1, “TETRAHYDROPYRIDOPYRIMIDINE PAN-KRAS INHIBITORS” (Mirati Therapeutics, Inc., priority 2022, published 2025).

Assay in all cases: biochemical
In one experiment the target is KRas G12R (Homo sapiens, UniProt P01116, G12R). To be noted: Binding to KRas (IC50 nM) G12R, TR-FRET displacement.
Another experiment deals with KRas G12V (Homo sapiens, UniProt P01116, G12V). To be noted: Binding to KRas (IC50 nM) G12V, TR-FRET displacement.
The target of another experiment is KRas G12D (Homo sapiens, UniProt P01116, G12D). Conditions: Binding to KRas (IC50 nM) G12D, TR-FRET displacement.

Regarding `CCc1c(F)ccc2cc(O)cc(N3CCc4c(nc(OC[C@@]56CCCN5C[C@H](F)C6)nc4N4CCCn5nc(C(=O)N6CC7CC6CO7)cc5C4)C3)c12` (stereo partly drawn) [Example 323, (2-oxa-5-azabicyclo[2.2.1]heptan-5-yl)(5-(7-(8-ethyl-7-fluoro-3-hydroxynaphthalen-1-yl)-2-(((2R,7aS)-2-fluorotetrahydro-1H-pyrrolizin-7a(5H)-yl)methoxy)-5,6,7,8-tetrahydropyrido[3,4-d]pyrimidin-4-yl)-5,6,7,8-tetrahydro-4H-pyrazolo[1,5-a][1,4]diazepin-2-yl)methanone], the IC50 on KRas G12R, at KRas G12V and on KRas G12D was less than 2 nM each time.
For the compound `CCc1c(F)ccc2cc(O)cc(N3CCc4c(nc(OC[C@@]56CCCN5C[C@H](F)C6)nc4N4CCCn5nc(C(=O)N6C7COCC6C7)cc5C4)C3)c12` [Example 325, 3-oxa-6-azabicyclo[3.1.1]heptan-6-yl(5-(7-(8-ethyl-7-fluoro-3-hydroxynaphthalen-1-yl)-2-(((2R,7aS)-2-fluorohexahydro-1H-pyrrolizin-7a-yl)methoxy)-5,6,7,8-tetrahydropyrido[3,4-d]pyrimidin-4-yl)-5,6,7,8-tetrahydro-4H-pyrazolo[1,5-a][1,4]diazepin-2-yl)methanone], the IC50 at KRas G12R, on KRas G12V and on KRas G12D was less than 2 nM in each case.
With `CCc1c(F)ccc2cc(O)cc(N3CCc4c(nc(OC[C@@]56CCCN5C[C@H](F)C6)nc4N4CCCn5nc(S(=O)(=O)N(C)C)cc5C4)C3)c12` [Example 326, 5-(7-(8-ethyl-7-fluoro-3-hydroxynaphthalen-1-yl)-2-(((2R,7aS)-2-fluorohexahydro-11H-pyrrolizin-7a-yl)methoxy)-5,6,7,8-tetrahydropyrido[3,4-d]pyrimidin-4-yl)-N,N-dimethyl-5,6,7,8-tetrahydro-4H-pyrazolo[1,5-a][1,4]diazepine-2-sulfonamide], the IC50 was 4 nM at KRas G12R, 5 nM at KRas G12V and less than 2 nM at KRas G12D.
Taken in the same sequence, the figures for `CCc1c(F)ccc2cc(O)cc(N3CCc4c(nc(OC[C@@]56CCCN5C[C@H](F)C6)nc4N4CCCn5nc(C(=O)N6CC7CC(C6)O7)cc5C4)C3)c12` [Example 327, 6-oxa-3-azabicyclo[3.1.1]heptan-3-yl(5-(7-(8-ethyl-7-fluoro-3-hydroxynaphthalen-1-yl)-2-(((2R,7aS)-2-fluorohexahydro-1H-pyrrolizin-7a-yl)methoxy)-5,6,7,8-tetrahydropyrido[3,4-d]pyrimidin-4-yl)-5,6,7,8-tetrahydro-4H-pyrazolo[1,5-a][1,4]diazepin-2-yl)methanone] were less than 2 nM, less than 2 nM and less than 2 nM.
For `CCc1c(F)ccc2cc(O)cc(N3CCc4c(nc(OC[C@@]56CCCN5C[C@H](F)C6)nc4N4CCCn5nc(C(=O)N6CC7CCCC6C7)cc5C4)C3)c12` (stereo partly drawn) [Example 328, 6-azabicyclo[3.2.1]octan-6-yl(5-(7-(8-ethyl-7-fluoro-3-hydroxynaphthalen-1-yl)-2-(((2R,7aS)-2-fluorohexahydro-1H-pyrrolizin-7a-yl)methoxy)-5,6,7,8-tetrahydropyrido[3,4-d]pyrimidin-4-yl)-5,6,7,8-tetrahydro-4H-pyrazolo[1,5-a][1,4]diazepin-2-yl)methanone], in that order: less than 2 nM, less than 2 nM and 3 nM.
Take `CCc1c(F)ccc2cc(O)cc(N3CCc4c(nc(OC[C@@]56CCCN5C[C@H](F)C6)nc4N4CCCn5nc(C(=O)N6CC7CC(C7)C6)cc5C4)C3)c12` [Example 330, 3-azabicyclo[3.1]heptan-3-yl(5-(7-(8-ethyl-7-fluoro-3-hydroxynaphthalen-1-yl)-2-(((2R,7aS)-2-fluorohexahydro-1H-pyrrolizin-7a-yl)methoxy)-5,6,7,8-tetrahydropyrido[3,4-d]pyrimidin-4-yl)-5,6,7,8-tetrahydro-4H-pyrazolo[1,5-a][1,4]diazepin-2-yl)methanone]: the IC50 on KRas G12R, on KRas G12V and on KRas G12D was less than 2 nM each time.
With `CCc1c(F)ccc2cc(O)cc(N3CCc4c(nc(OC[C@@]56CCCN5C[C@H](F)C6)nc4N4CCCn5nc(C(=O)N6CCC7CC7C6)cc5C4)C3)c12` (stereo partly drawn) [Example 332, 3-azabicyclo[4.1.0]heptan-3-yl(5-(7-(8-ethyl-7-fluoro-3-hydroxynaphthalen-1-yl)-2-(((2R,7aS)-2-fluorohexahydro-1H-pyrrolizin-7a-yl)methoxy)-5,6,7,8-tetrahydropyrido[3,4-d]pyrimidin-4-yl)-5,6,7,8-tetrahydro-4H-pyrazolo[1,5-a][1,4]diazepin-2-yl)methanone], the IC50 on KRas G12R was less than 2 nM; on KRas G12V it was less than 2 nM; on KRas G12D, 2 nM.
As for `CCc1c(F)ccc2cc(O)cc(N3CCc4c(nc(OC[C@@]56CCCN5C[C@H](F)C6)nc4N4CCCn5nc(C(=O)N6CC7CCC(C6)O7)cc5C4)C3)c12` [Example 333, 8-oxa-3-azabicyclo[3.2.1]octan-3-yl(5-(7-(8-ethyl-7-fluoro-3-hydroxynaphthalen-1-yl)-2-(((2R,7aS)-2-fluorohexahydro-1H-pyrrolizin-7a-yl)methoxy)-5,6,7,8-tetrahydropyrido[3,4-d]pyrimidin-4-yl)-5,6,7,8-tetrahydro-4H-pyrazolo[1,5-a][1,4]diazepin-2-yl)methanone], the IC50 at KRas G12R, on KRas G12V and on KRas G12D was less than 2 nM throughout.
As for `CCc1c(F)ccc2cc(O)cc(N3CCc4c(nc(OC[C@@]56CCCN5C[C@H](F)C6)nc4N4CCCn5nc(C(=O)N6CCC7CC6CO7)cc5C4)C3)c12` (stereo partly drawn) [Example 337, 6-oxa-2-azabicyclo[3.2.1]octan-2-yl(5-(7-(8-ethyl-7-fluoro-3-hydroxynaphthalen-1-yl)-2-(((2R,7aS)-2-fluorohexahydro-1H-pyrrolizin-7a-yl)methoxy)-5,6,7,8-tetrahydropyrido[3,4-d]pyrimidin-4-yl)-5,6,7,8-tetrahydro-4H-pyrazolo[1,5-a][1,4]diazepin-2-yl)methanone], the IC50 on KRas G12R, at KRas G12V and on KRas G12D was less than 2 nM throughout.
Regarding `CCc1c(F)ccc2cc(O)cc(N3CCc4c(nc(OC[C@@]56CCCN5C[C@H](F)C6)nc4N4CCCn5nc(C(=O)NC)c(F)c5C4)C3)c12` [Example 362, 5-(7-(8-ethyl-7-fluoro-3-hydroxynaphthalen-1-yl)-2-(((2R,7aS)-2-fluorohexahydro-1H-pyrrolizin-7a-yl)methoxy)-5,6,7,8-tetrahydropyrido[3,4-d]pyrimidin-4-yl)-3-fluoro-N-methyl-5,6,7,8-tetrahydro-4H-pyrazolo[1,5-a][1,4]diazepine-2-carboxamide], the IC50 on KRas G12R, at KRas G12V and at KRas G12D was less than 2 nM in each case.
`CCc1c(F)ccc2cc(O)cc(N3CCc4c(nc(OC[C@@]56CCCN5C[C@H](F)C6)nc4N4CCCn5nc(C(=O)NC(C)C)c(F)c5C4)C3)c12` [Example 366, 5-(7-(8-ethyl-7-fluoro-3-hydroxynaphthalen-1-yl)-2-(((2R,7aS)-2-fluorohexahydro-1H-pyrrolizin-7a-yl)methoxy)-5,6,7,8-tetrahydropyrido[3,4-d]pyrimidin-4-yl)-3-fluoro-N-isopropyl-5,6,7,8-tetrahydro-4H-pyrazolo[1,5-a][1,4]diazepine-2-carboxamide]: the IC50 on KRas G12R, on KRas G12V and at KRas G12D was less than 2 nM in each case.
Take `CCc1c(F)ccc2cc(O)cc(N3CCc4c(nc(OC[C@@]56CCCN5C[C@H](F)C6)nc4N4CCCn5nc(NC)c(Br)c5C4)C3)c12` [Example 394, 4-(4-(3-bromo-2-(methylamino)-7,8-dihydro-4H-pyrazolo[1,5-a][1,4]diazepin-5(6H)-yl)-2-(((2R,7aS)-2-fluorohexahydro-1H-pyrrolizin-7a-yl)methoxy)-5,6-dihydropyrido[3,4-d]pyrimidin-7(8H)-yl)-5-ethyl-6-fluoronaphthalen-2-ol]: the figures for the IC50 at KRas G12R, at KRas G12V and at KRas G12D were less than 2 nM, 2 nM and 2 nM, respectively.
`CCc1c(F)ccc2cc(O)cc(N3CCc4c(nc(OC[C@@]56CCCN5C[C@H](F)C6)nc4N4CCCn5nc(C(=O)NC)cc5C4)C3)c12` [Example 400, 5-(7-(8-ethyl-7-fluoro-3-hydroxynaphthalen-1-yl)-2-(((2R,7aS)-2-fluorohexahydro-1H-pyrrolizin-7a-yl)methoxy)-5,6,7,8-tetrahydropyrido[3,4-d]pyrimidin-4-yl)-N-methyl-5,6,7,8-tetrahydro-4H-pyrazolo[1,5-a][1,4]diazepine-2-carboxamide]: the IC50 on KRas G12R, at KRas G12V and on KRas G12D was less than 2 nM throughout.
Consider `CCc1c(F)ccc2cc(O)cc(N3CCc4c(nc(OC[C@@]56CCCN5C[C@H](F)C6)nc4N4CCCn5nc(C(=O)N6CCOCC6)c(Cl)c5C4)C3)c12` [Example 413, (3-chloro-5-(7-(8-ethyl-7-fluoro-3-hydroxynaphthalen-1-yl)-2-(((2R,7aS)-2-fluorohexahydro-1H-pyrrolizin-7a-yl)methoxy)-5,6,7,8-tetrahydropyrido[3,4-d]pyrimidin-4-yl)-5,6,7,8-tetrahydro-4H-pyrazolo[1,5-a][1,4]diazepin-2-yl)(morpholino)methanone], for which the IC50 on KRas G12R, on KRas G12V and at KRas G12D was less than 2 nM in each case.
In the case of `CCc1c(F)ccc2cc(O)cc(N3CCc4c(nc(N5CC(N(C)C)C5)nc4N4CCCn5nc(C(=O)N(C)C)cc5C4)C3)c12` [Example 432, 5-(2-(3-(dimethylamino)azetidin-1-yl)-7-(8-ethyl-7-fluoro-3-hydroxynaphthalen-1-yl)-5,6,7,8-tetrahydropyrido[3,4-d]pyrimidin-4-yl)-N,N-dimethyl-5,6,7,8-tetrahydro-4H-pyrazolo[1,5-a][1,4]diazepine-2-carboxamide], the concentration for half-maximal inhibition (IC50) at KRas G12R was found to be 592 nM; on KRas G12V, 316 nM; at KRas G12D, 201 nM.
